Data: US12071411B2, “Inhibitors of HIF-2α and methods of use thereof” (ARCUS BIOSCIENCES, INC., priority 2021, dated 2024)

By UniProt entry, the sequences of proteins in these tests, tags left out. Where a name states a change or a piece, a line headed by the entry shows the natural chain unless it says otherwise.
UniProt Q99814: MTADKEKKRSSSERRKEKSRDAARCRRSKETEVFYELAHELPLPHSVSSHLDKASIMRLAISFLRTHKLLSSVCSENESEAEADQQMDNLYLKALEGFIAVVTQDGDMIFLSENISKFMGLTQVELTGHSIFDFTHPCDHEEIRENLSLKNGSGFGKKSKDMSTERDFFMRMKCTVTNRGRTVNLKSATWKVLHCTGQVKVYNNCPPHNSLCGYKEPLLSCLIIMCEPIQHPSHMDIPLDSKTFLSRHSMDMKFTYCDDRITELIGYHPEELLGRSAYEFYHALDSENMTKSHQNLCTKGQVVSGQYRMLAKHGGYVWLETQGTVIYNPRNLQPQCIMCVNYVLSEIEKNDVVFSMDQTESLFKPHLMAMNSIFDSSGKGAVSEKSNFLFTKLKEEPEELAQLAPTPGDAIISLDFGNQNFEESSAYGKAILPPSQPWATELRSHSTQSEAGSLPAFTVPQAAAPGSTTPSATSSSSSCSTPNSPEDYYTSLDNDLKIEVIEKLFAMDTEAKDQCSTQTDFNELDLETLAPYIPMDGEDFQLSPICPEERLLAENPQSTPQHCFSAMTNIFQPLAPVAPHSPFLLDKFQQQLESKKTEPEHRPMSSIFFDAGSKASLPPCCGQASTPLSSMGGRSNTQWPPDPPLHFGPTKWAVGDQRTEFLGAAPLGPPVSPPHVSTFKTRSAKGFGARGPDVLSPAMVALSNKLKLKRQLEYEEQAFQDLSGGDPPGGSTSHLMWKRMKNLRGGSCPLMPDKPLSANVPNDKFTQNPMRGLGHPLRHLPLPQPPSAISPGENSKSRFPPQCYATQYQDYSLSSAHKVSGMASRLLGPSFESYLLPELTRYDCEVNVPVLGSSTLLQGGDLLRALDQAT

Tests used:
HIF-2α [1] = molecular target: T1, HIF-2α (Homo sapiens, UniProt Q99814); experiment: HIF-2α Luciferase Reporter Assay (serum), HRE-luciferase 786-0 cells in 100% human serum; assay type: cell-based; settings: 786-0 reporter cells, overnight incubation, read-out: Serum Potency
Description: (§1) Generation of HIF-2α Luciferase 786-0 Cell Line:
(§2) Stable cell lines were generated by transducing 786-0 cells (ATCC, CRL-1932) with Cignal Lenti HIF Luc Reporter lentivirus (CLS-007L, Qiagen) according to the manufacturer's guidelines. In brief, 0.3×10^6 786-0 cells were transduced with lentivirus at a multiplicity of infection (MOI) of 25 for 24 hours. After transduction, cells were replenished with fresh RPMI 1640 Medium (Cat. No. 11875085, Thermo Fisher) supplemented with 10% FBS (Cat. No. A3160502, Gibco), 2 mM GlutaMAX™ (Cat. No. 35050-061, Invitrogen) and 100 units of penicillin and 100 μg of streptomycin/mL (Cat. No 15070063, Thermo Fisher) for another 24 hours. Antibiotic selection was performed in cell media containing 4 μg/mL of puromycin. After 7 days of antibiotic selection, stable pools of surviving cells were expanded and used in a luciferase reporter assay.
HIF-2α Luciferase Reporter Assay (Serum):
An HRE-luciferase stable reporter 786-0 cell line was maintained in active culture using RPMI 1640 (GIBCO) media supplemented with 1% penicillin-streptomycin, 1% GlutaMAX™, 10% FBS-One Shot (GIBCO) and 4 ug/ml of puromycin (Invitrogen). […] 40 ul/well of ONE-Glo™ reagent was added and allowed to incubate for 10 minutes before reading the luminescence signal on the Envision (PerkinElmer). Data was analyzed using 4-parameter logistic equation to generate IC50.

HIF-2α [2] = molecular target: T1, HIF-2α; experiment: HIF-2α Luciferase Reporter Assay (serum free) in HIF-Luc-786-0 cells; assay type: cell-based; settings: Opti-MEM, 786-0 reporter cells, 20 hours incubation
Description: as §1
as §2, with “Antibiotic selection was performed in cell media containing 4 μg/mL of puromycin. After 7 days of antibiotic selection, stable pools of surviving cells were expanded and used in a luciferase reporter assay.” left out
On day one, 20 uL of HIF-Luc-786-0 cells in Opti-MEM™ (Cat. No. 31985088, Thermo Fisher) were seeded into each well of a 384 well white opaque plate (Corning 3570) and incubated at 37° C. and 5% CO2. […] After 20 hours incubation at 37° C. and 5% CO2, luciferase activity was determined using ONE-Glo™ Luciferase Assay Reagent (E6110, Promega) following the manufacture's recommended procedure. Briefly, 40 uL of ONE-Glo™ luciferase reagents were added to each well and luciferase signals were measured using an Envision 2102 Multilabel Reader. Percentage maximum activity in each test well was calculated based on DMSO (maximum activity) and no cell control wells (baseline activity). […]

IC50 (HIF-2α [1]): < 100 nM | IC50 (HIF-2α [2]): < 100 nM
SMILES: CO[C@H](CCn1nc(C(F)(F)F)c2c1CCC(F)(F)[C@H]2O)C(F)(F)F [Example 12, (4S)-5,5-difluoro-1-[(3R)-4,4,4-trifluoro-3-methoxybutyl]-3-(trifluoromethyl)-6,7-dihydro-4H-indazol-4-ol]
